# Values of other authors, collected in patent publication US20100227876A1 (priority 2009, published 2010).
# Tested on: human
# Settings: cited from earlier work
smiles,measurement,value
Oc1ccc2c3c1O[C@H]1[C@@H](O)CC[C@@]4(O)[C@@H](C2)N(CC2CCC2)CC[C@]314 [nalbuphine],effective human dose,5 to 10 mg
